The record followed here is ChEMBL document CHEMBL1132539 (J Med Chem, 1999).

pKi: −log10 of the molar value.

For the test, the target named is T1, Aminopeptidase N (Sus scrofa, UniProt P15145).
T1 sequence (P15145 whole entry): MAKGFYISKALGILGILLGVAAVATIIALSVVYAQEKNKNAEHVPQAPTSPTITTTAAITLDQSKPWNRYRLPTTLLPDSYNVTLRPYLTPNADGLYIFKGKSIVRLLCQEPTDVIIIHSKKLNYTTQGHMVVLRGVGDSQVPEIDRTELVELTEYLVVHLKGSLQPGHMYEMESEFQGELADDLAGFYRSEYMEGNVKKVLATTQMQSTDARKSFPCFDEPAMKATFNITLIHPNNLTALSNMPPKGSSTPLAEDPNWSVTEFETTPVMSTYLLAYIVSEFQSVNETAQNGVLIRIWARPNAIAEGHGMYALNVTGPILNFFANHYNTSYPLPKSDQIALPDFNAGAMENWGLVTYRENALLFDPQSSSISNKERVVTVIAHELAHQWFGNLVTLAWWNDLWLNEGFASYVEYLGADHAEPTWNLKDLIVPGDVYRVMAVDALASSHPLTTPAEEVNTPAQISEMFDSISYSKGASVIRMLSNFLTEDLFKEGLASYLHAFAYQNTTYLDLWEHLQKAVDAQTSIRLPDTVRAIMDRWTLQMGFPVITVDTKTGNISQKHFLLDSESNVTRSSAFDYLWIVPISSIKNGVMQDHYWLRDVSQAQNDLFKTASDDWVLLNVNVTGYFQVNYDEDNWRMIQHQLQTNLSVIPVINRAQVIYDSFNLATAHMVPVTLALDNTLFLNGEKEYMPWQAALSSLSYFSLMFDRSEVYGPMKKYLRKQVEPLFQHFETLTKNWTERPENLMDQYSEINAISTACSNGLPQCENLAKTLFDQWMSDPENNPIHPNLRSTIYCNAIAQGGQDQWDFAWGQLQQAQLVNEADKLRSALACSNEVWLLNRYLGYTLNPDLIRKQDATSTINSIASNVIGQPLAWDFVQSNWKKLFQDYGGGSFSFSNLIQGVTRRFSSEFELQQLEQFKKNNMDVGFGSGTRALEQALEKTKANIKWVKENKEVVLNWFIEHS
As to `CC[C@@H](C)[C@H](NC(=O)[C@H](S)[C@H](N)CCS(=O)(=O)O)C(=O)N[C@@H](CS(=O)(=O)O)C(=O)O`, the negative-log Ki (pKi) is under 5.30.
`N[C@H](CCS(=O)(=O)O)[C@@H](S)C(=O)N[C@@H](Cc1ccc(O)cc1)C(=O)N[C@@H](CCS(=O)(=O)O)C(=O)O` showed a pKi of 5.34.
Consider `N[C@H](CCS(=O)(=O)O)[C@H](S)C(=O)N[C@@H](Cc1ccc(O)cc1)C(=O)N[C@@H](CCS(=O)(=O)O)C(=O)O`, for which the pKi was 5.12. This pKi is 0.22 log units lower than that of the compound before.
In the case of `CC[C@@H](C)[C@H](NC(=O)[C@@H](S)[C@H](N)CCS(=O)(=O)O)C(=O)N[C@@H](CS(=O)(=O)O)C(=O)O`, the pKi is under 5.30.
